Source: PubChem
RAD52 inh – blocks human RAD52 DNA annealing | P43351 | recombinant RAD52 DNA annealing, FRET fluorescence | inhibition, % at 18.7 µM | 360,000 compounds, 0.46% hits | AID 651710;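 active means every replicate showing at least 50% inhibition; inconclusive means mean inhibition at least 50% but not in every replicate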
Yeast UUG start – alters start codon recognition fidelity in yeast. 350,000 tested, 0.13% active. activity score, % at 18.7 µM. S. cerevisiae UUG-firefly luciferase reporter, luminescence/redox ratio;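 active = replicate mean at a twofold rise or more, about +100% in these data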;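 also: firefly luciferase made from a UUG start codon reports start codon fidelity; reporter light over untreated wells divided by growth signal over untreated wells; some hits fall short of that in this replicate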
RAD54 branch – inhibitors of human RAD54 branch migration | RAD54 Holliday junction branch migration, FAM/BHQ fluorescence | inhibition, % at 10.4 µM | AID 602329 | 360,000 compounds, 0.14% hits;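 active means mean normalized replicate activity at least 40 and at least half of replicates scoring 40 or more; inconclusive means only one of the two criteria met; inactive means mean below 40 and under half of replicates reaching 40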;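 further: 0% = median of neutral control wells and 100% = median of positive control wells; inhibitors cause a drop in the FAM fluorescence signal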
XiGFP reactiv – X-chromosome reactivation activator; XiGFP mouse fibroblasts, % GFP-positive cells imaging, 3 d; cells co-treated with 5-aza-dC sensitizer; scaled so ellipticine positive control = 100%; activation, % at 7.58 µM; 360,000 compounds, 0.055% hits; AID 743238;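 active means mean normalized replicate activation at least 10% and every replicate at or above 10%; inconclusive means only one of the two criteria met; inactive means mean below 10% and not all replicates reach 10%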;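 further: 0% = median of on-plate neutral control wells and 100% = ellipticine 6 µM median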
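Assay system: SV40-immortalized XiGFP fibroblast cells, line 68-5-11; buffer or medium: DMEM plus 5-aza-dC sensitizer; compound: one concentration, pinned; timing: compounds 3 days, fix/stain 15 min at room temperature; benchmarks: positive control ellipticine, 6 µM final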
E-selectin induc – E-selectin induction on HUVECs; activation, % at 7.58 µM; 260,000 compounds, 0.37% hits; HUVEC E-selectin immunofluorescence imaging; normalized: neutral wells 0, TNF-alpha wells 100; P16581;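 active means mean E-selectin-positive cell signal at least 10% of the positive control, reached in at least 60% of replicates, without over 20% cell loss; inconclusive means no rule given, readout overlaps actives, possibly toxicity-flagged; inactive means the rest, including those meeting only one limit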
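Test system: HUVEC | Signal: Immunofluorescence imaging | Read-out: Percent E-selectin-positive cells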
Starred values were filed as active, the others as inactive; ? = inconclusive; nt = not tested or not shown. In the library only some 0.73% were active in any assay of this set; here they are far more common.

SMILES | RAD52 inh | Yeast UUG start | RAD54 branch | XiGFP reactiv | E-selectin induc
COc1cccc(-c2ccc(C3[C@@H]4CN(C(=O)c5ccc(F)cc5)C[C@H]3N4)cc2)c1 (stereo partly specified) | 52* | nt | nt | 0 | 0
O=C(c1ccc(F)cc1)N1C[C@@H]2N[C@H](C1)C2c1ccc(-c2cncnc2)cc1 (stereo partly specified) | 15 | nt | nt | 0 | 0
CCCCN1C(=O)/C(=C/C=C2\SCCN2C)SC1=S | -25 | nt | nt | 0 | 38*
C[C@@H](NC(=O)C[C@@H]1C[C@H]2c3cc(NC(=O)c4ccc5c(c4)OCO5)ccc3O[C@H]2[C@@H](CO)O1)c1ccccc1 | nt | nt | nt | 0 | 0
COc1ccc2c(c1)C(=O)N(c1ccccc1C)C(=O)C2(C)C | -8 | nt | nt | 0 | 0
COc1ccc(N2C(=O)c3ccccc3C(C)(C)C2=O)cc1 | -7 | -21 | 0 | 0 | 45*
O=C(NCC[C@H]1CC[C@@H](NC(=O)Nc2cc(F)ccc2F)[C@@H](CO)O1)Nc1ccc(Cl)cc1 | 29 | 9 | 6 | 0 | 1
C#CCOCCOCCOCCNc1nc(N2CCOCC2)nc(N2CCN(C(=O)[C@H](CCCCN)n3cc(CCC(=O)O)nn3)CC2)n1 | -6 | 26 | -19 | 0 | 1
C#CCOCCOCCOCCNc1nc(N2CCN(C(=O)[C@H](CCCCN)n3cc(CN)nn3)CC2)nc(N2CCN(C(=O)[C@H](CCCCN)n3cc(CN)nn3)CC2)n1 | 61* | 59 | -19 | 0 | 0
C#CCOCCOCCOCCNc1nc(N2CCN(C(=O)CCCCCCCCCCNC(=O)Cn3cc(CCCCCN)nn3)CC2)nc(N2CCN(C(=O)CCCCCCCCCCNC(=O)Cn3cc(C[C@@H](C)O)nn3)CC2)n1 | 52* | 0 | 0 | nt | nt
C[C@@H]1CN([C@@H](C)CO)C(=O)c2cc(NC(=O)Nc3ccc(C(F)(F)F)cc3)ccc2O[C@H]1CN(C)S(=O)(=O)c1ccc(Cl)cc1 | 19 | -13 | -3 | 0 | -16
O=C(Nc1ccccc1)[C@H]1[C@H](CO)[C@H]2Cn3c(cccc3=O)[C@H]2N1C(=O)C1CC1 | 6 | -18 | 3 | 0 | 0
COc1cccc(NC(=O)Nc2ccc3c(c2)C(=O)N(C)C[C@H](OC)[C@@H](C)CN(C)[C@H](C)CO3)c1 | 94* | nt | 4 | 0 | 0
COc1cccc(NC(=O)Nc2ccc3c(c2)C(=O)N(C)C[C@@H](OC)[C@@H](C)CN(C)[C@@H](C)CO3)c1 | 88* | nt | 5 | nt | nt
COc1cccc(NC(=O)Nc2ccc3c(c2)C(=O)N(C)C[C@H](OC)[C@H](C)CN(C)[C@@H](C)CO3)c1 | 93* | nt | 0 | 0 | 0

Laid out differently: entries from further up.
The line under a structure holds: RAD52 inh | Yeast UUG start | RAD54 branch | XiGFP reactiv | E-selectin induc
COc1cccc(NC(=O)Nc2ccc3c(c2)C(=O)N(C)C[C@H](OC)[C@@H](C)CN(C)[C@H](C)CO3)c1
  94* | nt | 4 | 0 | 0
C[C@@H](NC(=O)C[C@@H]1C[C@H]2c3cc(NC(=O)c4ccc5c(c4)OCO5)ccc3O[C@H]2[C@@H](CO)O1)c1ccccc1
  nt | nt | nt | 0 | 0
COc1cccc(NC(=O)Nc2ccc3c(c2)C(=O)N(C)C[C@H](OC)[C@H](C)CN(C)[C@@H](C)CO3)c1
  93* | nt | 0 | 0 | 0

(next part)
SMILES | RAD52 inh | Yeast UUG start | RAD54 branch | XiGFP reactiv | E-selectin induc
CO[C@H]1CN(C)C(=O)c2cc(NC(=O)Nc3cccc(Cl)c3)ccc2OC[C@H](C)N(C)C[C@H]1C | 21 | 7 | 9 | 0 | 0
CCCN1C[C@@H](C)[C@@H](OC)CN(C)C(=O)c2cc(NC(=O)Nc3cccc(OC)c3)ccc2OC[C@@H]1C | nt | nt | nt | 0 | 2
COc1ccccc1CN1C[C@@H](C)[C@H](OC)CN(C)C(=O)c2cc(NC(=O)Nc3ccccc3OC)ccc2OC[C@H]1C | 52* | 5 | 6 | 0 | 0
COc1ccccc1NC(=O)Nc1ccc2c(c1)C(=O)N(C)C[C@@H](OC)[C@H](C)CN(Cc1ccccc1Cl)[C@H](C)CO2 | -14 | nt | -7 | 0 | 0
CCS(=O)(=O)N1Cc2cc(C(=O)O)nc(-c3cccc(-c4ccc(C#N)cc4)c3)c2[C@H]1CCO | 5 | nt | nt | 0 | 0
O=c1c2ccccc2nnn1Cc1ccc2ccccc2c1 | -9 | nt | nt | 73* | 4
CCCOc1ccc(C(=O)OCCN(CC)CC)cc1N | 95* | -14 | 4 | 0 | ?
O=C(C[C@H]1C[C@H]2c3cc(NS(=O)(=O)c4ccccc4)ccc3O[C@H]2[C@@H](CO)O1)N1CCOCC1 | 12 | nt | -4 | 0 | 0
O=C(NC1CCCC1)C(c1ccc(F)cc1)N(C(=O)c1csnn1)c1ccccc1 (stereo unspecified) | -9 | -13 | -5 | 0 | 36*
O=C(NC1CCCC1)C(c1ccc(F)cc1)N(C(=O)c1csnn1)c1ccccc1F (stereo unspecified) | -7 | -16 | -1 | 0 | nt
CO[C@H]1CN(C)C(=O)c2cc(NC(=O)c3ccccc3F)ccc2OC[C@H](C)N(C)C[C@@H]1C | -2 | -14 | 3 | 0 | 0
CC[C@H](C)[C@@H]1NC(=O)c2cc([N+](=O)[O-])cc(F)c2NCCCC[C@@H](C(N)=O)NC(=O)[C@H](CCCCN)NC1=O | 65* | -12 | 15 | 0 | 0
NNC(=O)c1sc(-c2ccc(Cl)cc2)cc1N | -14 | -13 | 14 | 19* | nt
Cc1ccc(-c2ccc3c(c2)O[C@@H](CN(C)C(=O)Nc2ccc(C(F)(F)F)cc2)[C@H](C)CN([C@H](C)CO)S3(=O)=O)cc1 | 0 | -9 | 7 | -1 | -1
CC(=NNc1nc2ccccc2o1)c1ncccn1 | -5 | nt | nt | 0 | 0
CC(=NNc1nc2ccccc2o1)c1cc2ccccc2cn1 | -6 | nt | nt | 73* | 0
COc1cc2sc3cc(NCCCN4CCOCC4)ccc3c(=O)c2cc1OC | 81* | 8 | 22 | 0 | 0
CN(C)CC#Cc1ccc([C@@H]2[C@H]3CN(CC4CC4)CCCCN3[C@H]2CO)cc1 | 74* | 9 | -9 | 0 | 0
CN(C)CC#Cc1ccc([C@@H]2[C@H]3CN(CC4CCOCC4)CCCCN3[C@H]2CO)cc1 | -1 | 11 | -20 | 0 | 0
CN(C)CC#Cc1ccc([C@@H]2[C@@H](CO)N3CCCCN(CC4CC4)C[C@H]23)cc1 | 55* | 10 | 0 | 0 | 0
CN(C)CC#Cc1ccc([C@H]2[C@@H](CO)N3CCCCN(CC4CC4)C[C@H]23)cc1 | 67* | 11 | 1 | 0 | 0
CN(C)CC#Cc1ccc([C@H]2[C@H]3CN(CC4CCOCC4)CCCCN3[C@H]2CO)cc1 | 38 | 6 | -11 | 0 | 0
COc1ccc(CN(C)C[C@H]2Oc3ccc(NS(=O)(=O)c4ccc(C)cc4)cc3CC(=O)N([C@@H](C)CO)C[C@@H]2C)cc1 | -2 | 6 | 0 | 0 | 0
COc1ccc(S(=O)(=O)N(C)C[C@H]2Oc3ncc(C#CC4(O)CCCC4)cc3C(=O)N([C@H](C)CO)C[C@@H]2C)cc1 | -3 | nt | 12 | 0 | 0
CC=Cc1ccc2n(c1=O)C[C@@H]1[C@@H](CO)[C@H](C(=O)N(C)C)[C@H]2N1CC1CC1 (mixture of isomers) | 34 | nt | 6 | 0 | 0
COc1ccc([C@H]2CC(=O)C=C(c3ccc(OC(F)(F)F)cc3)C2)cc1 | -10 | -3 | -5 | 0 | 0
COc1ccc([C@H]2CC(=O)C=C(c3ccc(CNC(=O)OC(C)(C)C)cc3)C2)cc1 | -12 | -25 | -1 | 0 | 30*

Single records, from the list above. Screens in order: RAD52 inh | Yeast UUG start | RAD54 branch | XiGFP reactiv | E-selectin induc
Profile of CN(C)CC#Cc1ccc([C@@H]2[C@H]3CN(CC4CC4)CCCCN3[C@H]2CO)cc1 : 74* | 9 | -9 | 0 | 0
Profile of CC(=NNc1nc2ccccc2o1)c1cc2ccccc2cn1 : -6 | nt | nt | 73* | 0
